Source: US6936585B2, “Corticotropin releasing factor 2 receptor agonists” (priority 2002, dated 2005)

Key:
[1] = biological target: T1, CRF1R (Homo sapiens, UniProt P34998); assay: CRF1R agonist activation (EC50 / Emax), called comparative CRF binding; type: cell-based; conditions: for pEC50: CRF1R EC50; for Emax: read-out: CRF1R Emax
T1 sequence (P34998 24-415): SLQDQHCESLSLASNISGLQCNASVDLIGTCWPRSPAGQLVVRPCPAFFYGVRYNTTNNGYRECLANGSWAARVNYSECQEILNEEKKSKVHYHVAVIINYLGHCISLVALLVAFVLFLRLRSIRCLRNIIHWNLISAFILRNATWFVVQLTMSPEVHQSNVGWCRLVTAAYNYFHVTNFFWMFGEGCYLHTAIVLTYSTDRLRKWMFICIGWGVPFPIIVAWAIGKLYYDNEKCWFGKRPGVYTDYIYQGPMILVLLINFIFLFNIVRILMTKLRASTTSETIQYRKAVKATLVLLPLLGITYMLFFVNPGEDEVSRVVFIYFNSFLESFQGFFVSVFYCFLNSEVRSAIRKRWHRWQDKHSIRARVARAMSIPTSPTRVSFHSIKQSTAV
Outline: (§1)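 Cells expressing full-length human CRF1R or CRF2R were exposed to peptide or vehicle control, and receptor activation was gauged as cAMP induction. cAMP was measured in cell lysates or via a cAMP-responsive element driving a reporter gene such as luciferase, CAT, GFP or alkaline phosphatase.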

[2] = biological target: T2, CRF2R (Homo sapiens, UniProt Q13324); assay: CRF2R agonist activation (EC50 / Emax), called comparative CRF binding; type: cell-based; conditions: for Emax: read-out: CRF2R Emax
T2 sequence (Q13324 1-411): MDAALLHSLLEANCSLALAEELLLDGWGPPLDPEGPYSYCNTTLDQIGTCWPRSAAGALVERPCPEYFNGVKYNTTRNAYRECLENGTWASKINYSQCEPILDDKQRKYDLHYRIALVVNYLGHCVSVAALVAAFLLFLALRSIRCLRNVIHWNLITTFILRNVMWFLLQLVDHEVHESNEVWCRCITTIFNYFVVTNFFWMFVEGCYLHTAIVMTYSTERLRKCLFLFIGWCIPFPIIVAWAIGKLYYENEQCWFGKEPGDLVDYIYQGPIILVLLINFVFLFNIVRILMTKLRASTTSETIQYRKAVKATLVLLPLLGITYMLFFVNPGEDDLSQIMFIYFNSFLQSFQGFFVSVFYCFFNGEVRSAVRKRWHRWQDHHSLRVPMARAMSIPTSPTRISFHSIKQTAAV
Outline: as §1

Compound | pEC50 [1] | Emax [1] [%] | pEC50 [2] | Emax [2] [%]
CC[C@H](C)[C@H](NC(=O)[C@@H](NC(=O)[C@H](CC(=O)O)NC(=O)[C@H](CC(C)C)NC(=O)[C@H](CC(C)C)NC(=O)[C@H](CC(C)C)NC(=O)[C@H](CCCNC(=N)N)NC(=O)[C@H](CC(N)=O)NC(=O)[C@H](CC(N)=O)NC(=O)[C@H](C)NC(=O)[C@H](C)NC(=O)[C@H](CCC(N)=O)NC(=O)[C@H](CCC(N)=O)NC(=O)[C@H](CCCCN)NC(=O)[C@H](CCC(=O)O)NC(=O)[C@H](CCCCN)NC(=O)[C@H](CCC(=O)O)NC(=O)[C@H](CCC(N)=O)NC(=O)[C@H](CCCCN)NC(=O)[C@H](CCC(=O)O)NC(=O)[C@@H](NC(=O)[C@H](CCC(=O)O)NC(=O)[C@@H](NC(=O)[C@H](CCSC)NC(=O)[C@H](CCCCN)NC(=O)[C@H](CCCNC(=N)N)NC(=O)[C@H](CC(C)C)NC(=O)[C@H](CC(C)C)NC(=O)[C@H](Cc1c[nH]c2ccccc12)NC(=O)[C@H](Cc1ccc(O)cc1)NC(=O)[C@@H]1CCCN1C(=O)[C@H](CC(C)C)NC(=O)[C@H](CC(=O)O)NC(=O)[C@@H](NC(=O)[C@H](CO)NC(=O)[C@@H](NC(=O)[C@@H]1CCCN1C(=O)[C@@H]1CCCN1C(=O)CNC(=O)[C@@H]1CCC(=O)N1)[C@@H](C)CC)[C@@H](C)CC)[C@@H](C)CC)[C@@H](C)CC)[C@@H](C)O)C(N)=O [compound 215] | 6.73 | 100 | 8.40 | 100
CC[C@H](C)[C@H](NC(=O)[C@@H](NC(=O)[C@H](C)NC(=O)[C@H](CC(C)C)NC(=O)[C@H](CC(C)C)NC(=O)[C@H](CC(C)C)NC(=O)[C@H](C)NC(=O)[C@H](CC(N)=O)NC(=O)[C@H](CC(N)=O)NC(=O)[C@H](C)NC(=O)[C@H](C)NC(=O)[C@H](CCC(N)=O)NC(=O)[C@H](CCC(N)=O)NC(=O)[C@H](CCCCN)NC(=O)[C@H](CCC(=O)O)NC(=O)[C@H](CCCCN)NC(=O)[C@H](CCC(=O)O)NC(=O)[C@H](CCC(N)=O)NC(=O)[C@H](CCCCN)NC(=O)[C@H](CCC(=O)O)NC(=O)[C@@H](NC(=O)[C@H](CCC(=O)O)NC(=O)[C@@H](NC(=O)[C@H](CCSC)NC(=O)[C@H](CCCCN)NC(=O)[C@H](CCCNC(=N)N)NC(=O)[C@H](CC(C)C)NC(=O)[C@H](CC(C)C)NC(=O)[C@H](Cc1ccc(O)cc1)NC(=O)[C@H](Cc1ccccc1)NC(=O)[C@@H]1CCCN1C(=O)[C@H](CC(C)C)NC(=O)[C@H](CC(=O)O)NC(=O)[C@@H](NC(=O)[C@H](CO)NC(=O)[C@@H](NC(=O)[C@@H]1CCCN1C(=O)[C@@H]1CCCN1C(=O)CNC(=O)[C@@H]1CCC(=O)N1)[C@@H](C)CC)[C@@H](C)CC)[C@@H](C)CC)[C@@H](C)CC)[C@@H](C)O)C(N)=O [compound 231] | – | 100 | – | 100
CC[C@H](C)[C@H](NC(=O)[C@H](CCCNC(=N)N)NC(=O)[C@H](C)NC(=O)[C@H](CC(C)C)NC(=O)[C@H](CC(C)C)NC(=O)[C@H](CCCNC(=N)N)NC(=O)[C@H](C)NC(=O)[C@H](CC(N)=O)NC(=O)[C@H](CC(N)=O)NC(=O)[C@H](C)NC(=O)[C@H](C)NC(=O)[C@H](CCC(N)=O)NC(=O)[C@H](CCC(N)=O)NC(=O)[C@H](CCCCN)NC(=O)[C@H](CCC(=O)O)NC(=O)[C@H](CCCCN)NC(=O)[C@H](CCC(=O)O)NC(=O)[C@H](CCC(N)=O)NC(=O)[C@H](CCCCN)NC(=O)[C@H](CCC(=O)O)NC(=O)[C@@H](NC(=O)[C@H](CCC(=O)O)NC(=O)[C@@H](NC(=O)[C@@H](NC(=O)[C@H](CCCCN)NC(=O)[C@H](CCCNC(=N)N)NC(=O)[C@H](CC(C)C)NC(=O)[C@H](CC(C)C)NC(=O)[C@H](Cc1ccccc1)NC(=O)[C@@H](NC(=O)[C@@H]1CCCN1C(=O)[C@H](CC(C)C)NC(=O)[C@H](CC(=O)O)NC(=O)[C@@H](NC(=O)[C@H](CO)NC(=O)[C@@H](NC(=O)[C@@H]1CCCN1C(=O)[C@@H]1CCCN1C(=O)CNC(=O)[C@@H]1CCC(=O)N1)[C@@H](C)CC)[C@@H](C)CC)[C@@H](C)CC)C(C)C)[C@@H](C)CC)[C@@H](C)CC)C(N)=O [compound 281] | – | 12.2 | – | 78.8
CC[C@H](C)[C@H](NC(=O)[C@@H](NC(=O)[C@H](CC(=O)O)NC(=O)[C@H](CC(C)C)NC(=O)[C@H](CC(C)C)NC(=O)[C@H](CC(C)C)NC(=O)[C@H](C)NC(=O)[C@H](CC(N)=O)NC(=O)[C@H](CC(N)=O)NC(=O)[C@H](C)NC(=O)[C@H](C)NC(=O)[C@H](CCC(N)=O)NC(=O)[C@H](CCC(N)=O)NC(=O)[C@H](CCCCN)NC(=O)[C@H](CCC(=O)O)NC(=O)[C@H](CCCCN)NC(=O)[C@H](CCC(=O)O)NC(=O)[C@H](CCC(N)=O)NC(=O)[C@H](CCCCN)NC(=O)[C@H](CCC(=O)O)NC(=O)[C@@H](NC(=O)[C@H](CCC(=O)O)NC(=O)[C@@H](NC(=O)[C@H](CCSC)NC(=O)[C@H](CCCCN)NC(=O)[C@H](CCCNC(=N)N)NC(=O)[C@H](CC(C)C)NC(=O)[C@H](CC(C)C)NC(=O)[C@H](Cc1ccc(O)cc1)NC(=O)[C@@H](NC(=O)[C@@H]1CCCN1C(=O)[C@H](CC(C)C)NC(=O)[C@H](CC(=O)O)NC(=O)[C@@H](NC(=O)[C@H](CO)NC(=O)[C@@H](NC(=O)[C@@H]1CCCN1C(=O)[C@@H]1CCCN1C(=O)CNC(=O)[C@@H]1CCC(=O)N1)[C@@H](C)CC)[C@@H](C)CC)[C@@H](C)O)[C@@H](C)CC)[C@@H](C)CC)[C@@H](C)O)C(N)=O [compound 232] | ≤ 6.00 | 7 | 7.34 | 100
CC[C@H](C)[C@H](NC(=O)[C@@H](NC(=O)[C@H](CC(=O)O)NC(=O)[C@H](CC(C)C)NC(=O)[C@H](CC(C)C)NC(=O)[C@H](CC(C)C)NC(=O)[C@H](CCCNC(=N)N)NC(=O)[C@H](CC(N)=O)NC(=O)[C@H](CC(N)=O)NC(=O)[C@H](C)NC(=O)[C@H](C)NC(=O)[C@H](CCC(N)=O)NC(=O)[C@H](CCC(N)=O)NC(=O)[C@H](CCCCN)NC(=O)[C@H](CCC(=O)O)NC(=O)[C@H](CCCCN)NC(=O)[C@H](CCC(=O)O)NC(=O)[C@H](CCC(N)=O)NC(=O)[C@H](CCCCN)NC(=O)[C@H](CCC(=O)O)NC(=O)[C@@H](NC(=O)[C@H](CCC(=O)O)NC(=O)[C@@H](NC(=O)[C@H](CCSC)NC(=O)[C@H](CCCCN)NC(=O)[C@H](CCCNC(=N)N)NC(=O)[C@H](CC(C)C)NC(=O)[C@H](CC(C)C)NC(=O)[C@@H](NC(=O)[C@H](CC(C)C)NC(=O)[C@@H]1CCCN1C(=O)[C@H](CC(C)C)NC(=O)[C@H](CC(=O)O)NC(=O)[C@@H](NC(=O)[C@H](CO)NC(=O)[C@@H](NC(=O)[C@@H]1CCCN1C(=O)[C@@H]1CCCN1C(=O)CNC(=O)[C@@H]1CCC(=O)N1)[C@@H](C)CC)[C@@H](C)CC)C(C)C)[C@@H](C)CC)[C@@H](C)CC)[C@@H](C)O)C(N)=O [compound 193] | – | 95 | – | 97
CC[C@H](C)[C@H](NC(=O)[C@@H](NC(=O)[C@H](CC(=O)O)NC(=O)[C@H](CC(C)C)NC(=O)[C@H](CC(C)C)NC(=O)[C@H](CCCNC(=N)N)NC(=O)[C@H](C)NC(=O)[C@H](CC(N)=O)NC(=O)[C@H](CC(N)=O)NC(=O)[C@H](C)NC(=O)[C@H](C)NC(=O)[C@H](CCC(N)=O)NC(=O)[C@H](CCC(N)=O)NC(=O)[C@H](CCCCN)NC(=O)[C@H](CCC(=O)O)NC(=O)[C@H](CCCCN)NC(=O)[C@H](CCC(=O)O)NC(=O)[C@H](CCC(N)=O)NC(=O)[C@H](CCCCN)NC(=O)[C@H](CCC(=O)O)NC(=O)[C@@H](NC(=O)[C@H](CCC(=O)O)NC(=O)[C@@H](NC(=O)[C@@H](NC(=O)[C@H](CCCCN)NC(=O)[C@H](CCCNC(=N)N)NC(=O)[C@H](CC(C)C)NC(=O)[C@H](CC(C)C)NC(=O)[C@H](CCC(N)=O)NC(=O)[C@H](Cc1ccccc1)NC(=O)[C@@H]1CCCN1C(=O)[C@@H](NC(=O)[C@H](CC(=O)O)NC(=O)[C@@H](NC(=O)[C@H](CO)NC(=O)[C@@H](NC(=O)[C@@H]1CCCN1C(=O)[C@@H]1CCCN1C(=O)CNC(=O)[C@@H]1CCC(=O)N1)[C@@H](C)CC)[C@@H](C)CC)C(C)C)C(C)C)[C@@H](C)CC)[C@@H](C)CC)[C@@H](C)O)C(N)=O [compound 382] | – | 8 | – | 100

pEC50: −log10 of the molar value.
